{
  "source": "ChEMBL document CHEMBL4699588",
  "about": "“Structure-Activity Relationships of Noncovalent Immunoproteasome β5i-Selective Dipeptides” (J Med Chem, 2020)",
  "data": [
    {"species_on_record": "Homo sapiens", "test": "Selectivity index, ratio of IC50 for inhibition of human constitutive 20S proteasome beta 5 chymotrypsin-like activity to IC50 for inhibition of human 20S immunoproteasome beta 5 chymotrypsin-like activity", "values": [
      {"molecule": "COC[C@H](NC(=O)[C@H](CCC(=O)NC(C)(C)C)NC(=O)CCc1ccccc1)C(=O)NCc1cccc2ccccc12", "Ratio IC50": 24},
      {"molecule": "Cc1cc(C(=O)N[C@@H](CC(=O)NOC(C)(C)C)C(=O)N[C@@H](C)C(=O)NCc2cccc3ccccc23)no1", "Ratio IC50": 76},
      {"molecule": "Cc1ccc(S(=O)(=O)N[C@@H](CCC(=O)NC(C)(C)C)C(=O)N[C@@H](C)C(=O)NCc2cccc3ccccc23)cc1", "Ratio IC50": 1210},
      {"molecule": "C[C@H](NC(=O)[C@H](CC(=O)NOC(C)(C)C)NC(=O)CN1CCOCC1)C(=O)NCc1cccc2ccccc12", "Ratio IC50": 104},
      {"molecule": "C[C@H](NC(=O)[C@H](CCC(=O)NC(C)(C)C)NC(=O)CCc1ccccc1)C(=O)NCc1cccc2ccccc12", "Ratio IC50": 80},
      {"molecule": "Cc1ccc(S(=O)(=O)N[C@@H](CCC(=O)NC(C)(C)C)C(=O)N[C@@H](C)C(=O)NCc2ccc(F)c3ccccc23)cc1", "Ratio IC50": 2330},
      {"molecule": "C[C@H](NC(=O)[C@H](CC(=O)NC(C)(C)C)NC(=O)C(=O)c1c[nH]c2ccccc12)C(=O)NCc1cccc2ccccc12", "Ratio IC50": 118},
      {"molecule": "COC[C@H](NC(=O)[C@H](CCC(=O)NC(C)(C)C)NS(=O)(=O)c1ccc(C)cc1)C(=O)NCc1ccc(F)c2ccccc12", "Ratio IC50": 1880},
      {"molecule": "CC(C)(C)CNC(=O)C[C@H](NC(=O)CCc1ccccc1)C(=O)N[C@@H](Cc1ccc(F)cc1)C(=O)NCc1cccc2ccccc12", "Ratio IC50": 15},
      {"molecule": "COC[C@H](NC(=O)[C@H](CC(=O)NC(C)(C)C)NS(=O)(=O)c1ccc(C)cc1)C(=O)NCc1ccc(F)c2ccccc12", "Ratio IC50": 246},
      {"molecule": "Cc1nc(C(=O)N[C@@H](CC(=O)NOC(C)(C)C)C(=O)N[C@@H](C)C(=O)NCc2cccc3ccccc23)cs1", "Ratio IC50": 77},
      {"molecule": "Cc1cc(C(=O)N[C@@H](CCC(=O)NC(C)(C)C)C(=O)N[C@@H](C)C(=O)NCc2ccc(F)c3ccccc23)no1", "Ratio IC50": 508}
    ]}
  ]
}
